# Results as given in PubChem BioAssay (Tox21).
# Only a part is listed here, and it is no random draw. Results filed as inconclusive are left out. Calls of active or inactive are those of the source. The call rests on the fitted dose curve; in most records, active means well fitted curve in the direction sought with a large enough effect in the repeat runs; inconclusive means weak or mixed curves; inactive means no such curve, though single readings can be large; an effect the other way counts as inactive or inconclusive.
# Legend:
# [1] = qHTS assay to test for compound auto fluorescence at 535 nm (green) in HepG2 cells (AID 720675); conditions: green autofluorescence 485/535 nm, 1 h; at 91.3 µM (top of the series); further: on the % scale 0 is the no-effect control and ±100 the full control effect
# [2] = A CellTox Green Cytotoxicity Assay to monitor cytotoxicity in HepG2 cells - 32 hour (AID 1224883); conditions: CellTox Green fluorescence; at 76.8 µM (top of the series); further: on the % scale 0 is the no-effect control and ±100 the full control effect; nearly all actives have a fitted effect of over 50% in size
# Summary of the method: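 First, HepG2 cells (600/well) mixed with reagent were plated; second, after 5 h at 37 C they received compounds via pintool; third, fluorescence was measured at 0 h through 40 h at 8 h intervals.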
# [3] = Caspase-3/7 induction in CHO-K1 cells by small molecules, qHTS cell viability counter screen (AID 1346979); conditions: CellTiter-Fluor fluorescence, 17 h; further: potency means the concentration at half of the fitted maximal effect; nearly all actives have a fitted effect of over 35% in size
# Summary of the method: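 Cytotoxicity counter screen run in parallel with the caspase-3/7 assay: CHO-K1 cells, 16hr compound treatment at 37C, then CellTiter-Fluor for 1hr before fluorescence reading.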
compound,measurement,setting,value
O=[N+]([O-])C(Cl)(Cl)Cl,"fluorescence, % of fluorescein control",[1],inactive: -0.112%
same,cytotoxicity increase,[2],inactive: -17.8%
same,Potency,[3],active: 15.3 µM
